Data: publication PMC3827198, “Characterisation of AmphiAmR11, an Amphioxus (Branchiostoma floridae) D2-Dopamine-Like G Protein-Coupled Receptor” (PLoS ONE, 2013)
Where a name gives a salt, the structure may show the parent alone.

Amino acid sequences for entries named in this document (tags omitted).
UniProt A0PF35, entry or part of it: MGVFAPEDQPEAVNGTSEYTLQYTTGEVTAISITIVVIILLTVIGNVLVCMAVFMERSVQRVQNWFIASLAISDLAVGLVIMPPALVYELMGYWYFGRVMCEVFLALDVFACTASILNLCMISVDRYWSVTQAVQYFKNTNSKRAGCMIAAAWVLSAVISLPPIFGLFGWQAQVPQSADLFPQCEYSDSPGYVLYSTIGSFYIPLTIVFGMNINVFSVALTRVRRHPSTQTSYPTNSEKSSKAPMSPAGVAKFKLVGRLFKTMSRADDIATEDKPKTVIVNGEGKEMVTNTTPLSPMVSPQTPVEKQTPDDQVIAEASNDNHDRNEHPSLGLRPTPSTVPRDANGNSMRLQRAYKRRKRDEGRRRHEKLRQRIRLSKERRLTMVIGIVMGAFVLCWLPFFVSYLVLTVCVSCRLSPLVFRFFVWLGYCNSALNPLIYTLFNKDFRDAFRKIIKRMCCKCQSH

How the values were obtained:
AmphiAmR11 [1] = biological target: T1, AmphiAmR11 (Branchiostoma floridae, UniProt A0PF35); assay: Block of dopamine-induced ERK1/2 activation in AmphiAmR11-expressing CHO-K1 cells by antagonists; type: cell-based; details: 1 µM antagonist, 10 nM dopamine, 5 min
AmphiAmR11 [2] = biological target: T1, AmphiAmR11; assay: ERK1/2 phosphorylation in AmphiAmR11-expressing CHO-K1 cells (Western blotting); type: cell-based
AmphiAmR11 [3] = biological target: T1, AmphiAmR11; assay: Inhibition of forskolin-stimulated cAMP levels in AmphiAmR11-expressing CHO-K1 cells (agonist mode); type: cell-based
AmphiAmR11 [4] = biological target: T1, AmphiAmR11; assay: Block of tyramine-induced inhibition of forskolin-stimulated cAMP levels in AmphiAmR11-expressing CHO-K1 cells; type: cell-based; details: 1 μM antagonist, 30 nM tyramine
DD2R = test system: DD2R; parameters: method as in PMID 12391323; details: cited from earlier work

## CN1CCN2c3ccccc3Cc3ccccc3C2C1 (stereo not shown) [mianserin, mianserin hydrochloride]
AmphiAmR11 [1]
  Block of dopamine-induced ERK1/2 activation: no significant effect
AmphiAmR11 [2]; 1 μM antagonist
  Effect of antagonist on ERK1/2 phosphorylation in the absence of dopamine: increase in ERK1/2 phosphorylation
AmphiAmR11 [3]; 1 μM antagonist, 10 µM forskolin
  Decrease of forskolin-stimulated cAMP levels by antagonist in the absence of agonist: could inhibit forskolin-stimulated cAMP levels
AmphiAmR11 [3]; cAMP assay
  Agonist type at AmphiAmR11 (full or partial): full agonists
AmphiAmR11 [3]; concentration-response curves, absence of other agonist
  Inhibition of forskolin-stimulated cAMP levels (maximal): greater than 90%
AmphiAmR11 [4]
  Apparent enhancement of tyramine-induced inhibition of forskolin-stimulated cAMP levels: appeared to enhance
AmphiAmR11 [4]; 10 µM forskolin
  Block of tyramine-induced inhibition of forskolin-stimulated cAMP levels: no significant blocking effect

## CCCN1CCC[C@@H]2Cc3n[nH]cc3C[C@H]21 [quinpirole, (-)-quinpirole hydrochloride]
AmphiAmR11 [2]
  Effect on ERK1/2 phosphorylation at 1 µM: most effective of the synthetic agonists
AmphiAmR11 [3]; 1 µM agonist, 10 µM forskolin, 100 µM IBMX, 20 min
  Effect on forskolin-stimulated cAMP levels at 1 µM: most effective agonists
DD2R
  Activation of DD2R: not to activate
